Patent US10335401B2, “Non-aromatic heterocyclic derivative having MGAT2 inhibitory activity” (Shionogi & Co., Ltd., priority 2015, dated 2019)

By UniProt entry, the sequences of proteins in these tests, tags left out.
UniProt Q3SYC2, whole entry: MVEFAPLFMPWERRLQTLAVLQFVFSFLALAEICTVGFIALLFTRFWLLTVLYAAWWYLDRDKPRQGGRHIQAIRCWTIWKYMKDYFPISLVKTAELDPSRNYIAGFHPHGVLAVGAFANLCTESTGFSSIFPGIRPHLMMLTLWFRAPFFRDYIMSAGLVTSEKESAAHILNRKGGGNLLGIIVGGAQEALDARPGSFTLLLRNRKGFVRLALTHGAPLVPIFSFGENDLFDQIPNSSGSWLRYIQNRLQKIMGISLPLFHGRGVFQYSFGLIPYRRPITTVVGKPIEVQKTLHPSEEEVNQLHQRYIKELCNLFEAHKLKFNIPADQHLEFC

Biological target: recombinant human MGAT2 (Homo sapiens (Human), UniProt Q3SYC2)
Experiment: Measurement of human MGAT2 inhibitory activity
Settings: recombinant human MGAT2 membrane fraction (Sf-9); 2-Oleoylglycerol and Oleoyl-CoA substrates; 1 hour at room temperature; Diolein detected by RapidFire Q-TOF MS

CS(=O)(=O)CC(=O)NCC1=C(c2ccc(OC(F)F)cn2)C[C@](c2ccc(OCCCC(F)(F)F)nc2)(C(F)(F)F)NC1=O
IC50: 7.7 nM
